One experiment has as its system lyso-PLD. The experiment can be described thus: In vitro membrane lyso-PLD assay (B-lyso-PC substrate, B-LPA product). The note with it: PC12K membranes; 1 h. The format is biochemical, rat.
In another experiment the test system is PLA2. In words: In vitro membrane PLA2 assay (B-PC substrate, B-lyso-PC / B-lyso-PBt products). Conditions: PC12K membranes; 1 h.

With Methyl arachidonyl fluorophosphonate, the “Effect on lyso-PLD (B-lyso-PC as substrate)” value with lyso-PLD is “not inhibited”. In addition, the “Effect on PLA2 activity (B-lyso-PC from B-PC)” value with PLA2 is given as “suppressed PLA2 activity”.

Source of the values: paper PMC10969092, “Characterization of Lysophospholipase D Activity in Mammalian Cell Membranes” (Cells, 2024).
